The structures appear in SMILES notation.

Experimental findings from PubChem BioAssay AID624258 (Broad Institute, 2012) are described below.

The test system of the assay is S. cerevisiae SKN7-toxicity growth rescue, plate reader. In words: Yeast SKN7 toxicity growth rescue counterscreen, Saccharomyces cerevisiae, plate reader, dose confirmatory (AID 624258).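 Further: growth read after three days of incubation at 30 °C.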 In general terms: Counterscreens check selectivity or assay interference.

Regarding `CC(=O)OC1C(=O)OCC23CCC4(C)OC4C2OC2CC(OC(=O)C=CC=CC(=O)OCCC1C)C3(C)C21CO1` (stereo unspecified), the AC40 was 7.24 µM.
